According to patent US20100285988A1 (published 2010):
Where two headings read alike, the source gives them in different places. Blank lines part the entries; values can stand above or below the binder they belong to.

Tests used:
[1] = biological target: T1, γ-secretase (human; HeLa cell membrane / solubilized HeLa membrane; endogenous in HEK293 cells) (human, UniProt P49768 1-467; Q92542 34-709; Q9NZ42 1-101; Q96BI3 1-265)
[2] = biological target: T1, γ-secretase (human; HeLa cell membrane …); remark: listed apart in the source

Binder: LVFF [Aβ17-20 (LVFF) peptide]
IC50 [1]: 8.7 µM

Binder: LVFFAED [Aβ17-23 (LVFFAED) peptide]
IC50 [2]: 1.58 µM

Now from value to binder:

IC50 [1]: 5 µM
B1: Aβ17-23BPA^19 (peptide)
peptide: LVFFAED
modifications: p-benzoyl-L-phenylalanine (BPA) in place of Phe at position 19 of Aβ (3rd residue of LVFFAED)

IC50 [1]: 0.8 µM
Binder: LVFFA [Aβ17-21 (LVFFA) peptide]
